Test results reported in patent US7935869B2, “Chimeric gene with several herbicide tolerance genes, plant cell and plant resistant to several herbicides” (Bayer S.A.S., priority 1996, dated 2011).

How the values were obtained:
[1] = test system: PBD6 tobacco plants HPPD + OXY; experiment: Postemergence tolerance of tobacco, percentage destruction; assay type: in vivo; conditions: 17 days after treatment
Procedure: (§1) In this trial, each test is performed on a sample of 10 plants, 10 plants being kept untreated.
(§2) All the treatments are performed by spraying at the rate of 500 l of spraying mixture per hectare.
(§3) For the postemergence treatment, sowing is performed and then the plants are transplanted in 9 cm×9 cm pots.
(§4) The postemergence treatments are carried out at a well developed stage (3-4 leaves). Batches of plants, respectively wild-type and genetically transformed, obtained above are divided into several parts, with: […]

[2] = test system: wild-type tobacco without tolerance gene; experiment: as above; assay type: in vivo; conditions: 17 days after treatment
Procedure: as §1, §2, §3, §4

N#Cc1cc(Br)c(O)c(Br)c1 [bromoxynil]
phytotoxicity, percentage destruction ([1]; 400 g/ha postemergence): 3% | phytotoxicity, percentage destruction ([1]; 800 g/ha postemergence): 0% | phytotoxicity, percentage destruction ([2]; 400 g/ha postemergence): 0% | phytotoxicity, percentage destruction ([2]; 800 g/ha postemergence): 0%
